Reference: PubChem BioAssay (NCATS)
The entries are a selection whose mix differs from that of the whole data set. Inconclusive results are not listed. Active and inactive are the calls of the source. Calls follow the shape of the dose curve; as a rule, active = well fitted curve in the direction sought with a large enough effect; inconclusive = small, poorly fitted or top-dose-only effect, or another doubt; inactive = no such curve, though single readings can be large; an effect the other way counts as inactive or inconclusive.

By UniProt entry, the sequences of proteins in these tests, tags left out.
UniProt P08684, whole entry: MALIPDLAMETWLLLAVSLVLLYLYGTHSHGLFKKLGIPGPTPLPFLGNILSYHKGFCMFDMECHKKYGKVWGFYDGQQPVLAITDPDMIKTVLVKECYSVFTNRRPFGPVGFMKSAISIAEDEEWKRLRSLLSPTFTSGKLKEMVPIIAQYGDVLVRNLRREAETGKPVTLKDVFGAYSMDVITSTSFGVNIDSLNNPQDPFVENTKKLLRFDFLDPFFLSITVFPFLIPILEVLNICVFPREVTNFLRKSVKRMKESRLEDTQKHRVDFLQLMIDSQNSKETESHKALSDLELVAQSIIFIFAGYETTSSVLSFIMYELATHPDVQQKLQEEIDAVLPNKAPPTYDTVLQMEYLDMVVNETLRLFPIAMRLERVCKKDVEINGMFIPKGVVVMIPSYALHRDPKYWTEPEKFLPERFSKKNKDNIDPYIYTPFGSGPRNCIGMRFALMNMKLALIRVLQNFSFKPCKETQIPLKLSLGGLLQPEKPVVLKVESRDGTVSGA

Assays:
[1] = Cellular Toxicity (caspase-3) Renal Proximal Tubule (AID 667); details: renal proximal tubule cells, primary cells freshly taken from rat, solvent-only wells 0%, staurosporine 100%; at 91.7 µM (top of the series);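 also: cells exposed to compound for 16 hours at 37 °C before detection; 0% = DMSO basal and 100% = 10 µM staurosporine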
Outline: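 Caspase 3/7 activation measured by luminescent aminoluciferin release in primary rat proximal tubule cells after 16 hr compound exposure at 37 °C. AC50 from Hill-fitted concentration-response, scaled between DMSO and 10 uM staurosporine.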

[2] = biological target: Cytochrome P450 3A4 (Homo sapiens) (UniProt P08684); assay: qHTS Assay for Inhibitors and Substrates of Cytochrome P450 3A4 (AID 884); details: recombinant CYP3A4, Luciferin-PPXE luminescence; at 57.1 µM (top of the series); also: % is scaled to controls: 0 for no effect and ±100 for the full control effect; nearly all actives have a fitted effect of over 50% in size
[3] = Cell Viability - LYMP2-001 (AID 921); details: LYMP2-001 lymphoblastoid cell viability; at 92.2 µM (top of the series);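 also: 0% = DMSO only and full inhibition = tetraoctylammonium bromide control wells; nearly all actives have a fitted effect of over 70% in size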
Outline: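 Cellular ATP loss read by luciferase luminescence after 24 h compound exposure at 37 C in complete medium. LYMP2-001 lymphoblastoid cells, 2500/well; qHTS concentration-response data fitted with Hill equation for AC50.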

[4] = MultiTox-Fluor Cytotoxicity Assay - LYMP1-001 - Dead Cells (AID 946); details: LYMP1-001 lymphoblastoid cells, dead-cell protease fluorescence; at 92.2 µM (top of the series);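 also: 0% = DMSO and 100% = tetraoctylammonium bromide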
Outline: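 AC50 from Hill fit of concentration-response; data normalized to DMSO (basal) and 15 uM tetraoctylammonium bromide (100%). LYMP1-001 lymphoblastoid cells, 2500/well, 16 hr compound at 37 C; dead-cell protease fluorescence, Ex/Em 485/520.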

[5] = MultiTox-Fluor Cytotoxicity Assay - LYMP1-001 - Live Cells (AID 947); also: potency is read from the fitted curve at half-maximal effect;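 as to activity change, negative = cytotoxicity: 0% = DMSO only and full inhibition = tetraoctylammonium bromide control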
[6] = Cell Viability - LYMP1-002 - Assay at 16 hr (AID 948); details: LYMP1-002 lymphoblastoid cell viability; at 92.2 µM (top of the series);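 also: 0% = DMSO alone and full effect = 92 µM tetraoctylammonium bromide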
Outline: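 ATP luminescence (CellTiter-Glo) was measured after 16 hr compound exposure at 37 C of 2500 lymphoblastoid LYMP1-002 cells per well. Concentration-response curves were fitted with the Hill equation to give AC50.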

[7] = MultiTox-Fluor Cytotoxicity Assay - LYMP1-002 - Live Cells (AID 955); details: LYMP1-002 lymphoblastoid live-cell protease fluorescence viability; at 46.1 µM (top of the series); also: % is scaled to controls: 0 for no effect and ±100 for the full control effect
From the text: NIH Chemical Genomics Center [NCGC]
NIH Molecular Libraries Screening Centers Network [MLSCN]
National Institutes of Environmental Health Sciences [NIEHS]
National Toxicology Program [NTP]
We have developed a 1536-well cell-based assay for quantitative high throughput screening (qHTS) against a number of cell lines to determine in vitro cytotoxicity of small molecules. This particular assay uses a human lymphoblastoid cell line (LYMP1-002) purchased from Coriell Institute.
NCGC Assay Protocol Summary:
The MultiTox-Fluor Cytotoxicity Assay (Promega) is a homogeneous method to simultaneously measure the relative number of live and dead cells in culture by detecting changes in cell membrane integrity. There are two fluorogenic peptide substrates in the assay reagent. Viable cells are determined when the cell-permeant substrate (GF-AFC) enters the cell and is cleaved by protease from live cells resulting in liberated fluorophore. […] The dead cells are determined by using fluorogenic cell-impermeant peptide substrate (bis-AAF-R110) which cleaved by dead cell proteases leaking from damaged cell membrane.
Using the MultiTox-Fluor Cytotoxicity Assay, the relative number of live cells was measured in the lymphoblastoid cell line with complete culture medium following compound treatment for 16 hours. […] AC50 values were determined from concentration-response data modeled with the standard Hill equation. […]

[8] = MultiTox-Fluor Cytotoxicity Assay - LYMP1-002 - Dead Cells (AID 960); details: LYMP1-002 lymphoblastoid cells, dead-cell protease fluorescence; at 46.1 µM (top of the series);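 also: 0% = DMSO and 100% = tetraoctylammonium bromide; nearly all actives have a fitted effect of over 60% in size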
Outline: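 Dead-cell fluorescence (Ex/Em 485/520) after 16 h compound exposure at 37 C of LYMP1-002 lymphoblastoid cells in complete medium; AC50 by Hill equation, with data scaled between DMSO and 15 uM tetraoctylammonium bromide.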

[9] = MultiTox-Fluor Cytotoxicity Assay - LYMP1-003 - Dead Cells (AID 961); also: nearly all actives have a fitted effect of over 70% in size; also: potency is read from the fitted curve at half-maximal effect;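 as to cytotoxicity (dead cells): 0% = DMSO and 100% = tetraoctylammonium bromide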
Outline: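 Human lymphoblastoid LYMP1-003 cells (2500/well) were treated with compounds for 16 hr at 37 C in complete medium. Dead-cell protease release was read by bis-AAF-R110 fluorescence (Ex/Em 485/520). AC50 came from Hill fits, normalized to DMSO and 15 uM tetraoctylammonium bromide.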

[10] = MultiTox-Fluor Cytotoxicity Assay - LYMP1-003 - Live Cells (AID 962);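 also: cells exposed to compound for 16 hours at 37 °C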; also: potency is read from the fitted curve at half-maximal effect
Outline: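 Live-cell protease activity (GF-AFC substrate, 405/510 nm, 60 min at room temperature) after 16 h, 37 C compound exposure of human lymphoblastoid LYMP1-003 cells; concentration-response fitted to the Hill equation for AC50.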

O=[N+]([O-])C(Cl)(Cl)Cl
inactive: caspase-3 activation [1] -2.46% | activity change, negative = inhibition [2] -13% | activity change, negative = cytotoxic [3] 7.42% | cytotoxicity (dead cells) [4] -10.9% | Potency [5] | activity change, negative = cytotoxicity [6] -3.47% | viability change, negative = cytotoxic [7] 3.91% | cytotoxicity (dead cells) [8] 8.53% | Potency [9] | Potency [10]

CN(CCCl)CCCl
active: Potency [5] 31.6 µM | Potency [9] 31.6 µM | Potency [10] 39.8 µM
inactive: caspase-3 activation [1] 27.2% | activity change, negative = inhibition [2] -10.1%
